# From ChEMBL document CHEMBL2218924, “A broad activity screen in support of a chemogenomic map for kinase signalling research and drug discovery” (Biochem J, 2013)
# Chains of the proteins cited; added tags and fusions are not shown. Lines headed by an entry give the natural chain unless they say otherwise; changes in a name come on top.
# UniProt P78362, whole entry, looked up: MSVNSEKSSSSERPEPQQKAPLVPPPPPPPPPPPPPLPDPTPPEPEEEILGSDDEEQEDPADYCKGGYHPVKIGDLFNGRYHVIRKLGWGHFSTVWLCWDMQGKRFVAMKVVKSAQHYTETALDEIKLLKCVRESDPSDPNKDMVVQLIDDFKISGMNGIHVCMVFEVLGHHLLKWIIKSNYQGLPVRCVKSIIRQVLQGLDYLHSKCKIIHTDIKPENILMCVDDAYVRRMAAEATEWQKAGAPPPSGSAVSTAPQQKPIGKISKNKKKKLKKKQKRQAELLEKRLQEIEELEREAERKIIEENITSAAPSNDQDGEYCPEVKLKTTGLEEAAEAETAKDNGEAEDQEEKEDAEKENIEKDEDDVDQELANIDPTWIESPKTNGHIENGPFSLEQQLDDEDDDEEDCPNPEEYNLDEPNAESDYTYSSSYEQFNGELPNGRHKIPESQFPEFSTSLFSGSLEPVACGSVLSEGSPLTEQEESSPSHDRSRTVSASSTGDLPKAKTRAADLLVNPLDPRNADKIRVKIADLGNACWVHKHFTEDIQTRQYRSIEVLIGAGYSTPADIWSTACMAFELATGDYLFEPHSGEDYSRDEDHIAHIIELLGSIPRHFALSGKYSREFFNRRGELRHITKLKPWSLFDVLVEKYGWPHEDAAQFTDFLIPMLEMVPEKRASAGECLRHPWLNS
# UniProt Q9NYY3: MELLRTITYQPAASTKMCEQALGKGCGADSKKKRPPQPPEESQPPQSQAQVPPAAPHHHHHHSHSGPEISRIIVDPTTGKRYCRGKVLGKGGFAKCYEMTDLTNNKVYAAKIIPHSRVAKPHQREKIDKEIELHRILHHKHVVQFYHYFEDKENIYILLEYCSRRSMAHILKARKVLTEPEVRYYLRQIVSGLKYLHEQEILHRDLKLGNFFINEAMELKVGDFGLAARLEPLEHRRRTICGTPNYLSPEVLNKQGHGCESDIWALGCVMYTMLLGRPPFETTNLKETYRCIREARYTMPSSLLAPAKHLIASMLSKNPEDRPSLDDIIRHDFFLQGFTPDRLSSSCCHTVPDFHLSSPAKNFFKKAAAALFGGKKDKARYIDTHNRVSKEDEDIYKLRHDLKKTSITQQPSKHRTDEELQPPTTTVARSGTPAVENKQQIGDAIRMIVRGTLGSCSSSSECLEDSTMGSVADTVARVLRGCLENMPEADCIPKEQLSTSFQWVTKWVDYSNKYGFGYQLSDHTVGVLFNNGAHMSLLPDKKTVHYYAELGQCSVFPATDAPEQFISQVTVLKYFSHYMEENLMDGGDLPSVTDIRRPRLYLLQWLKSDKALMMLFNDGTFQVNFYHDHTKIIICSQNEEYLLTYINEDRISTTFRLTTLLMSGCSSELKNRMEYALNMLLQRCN
# UniProt P14616: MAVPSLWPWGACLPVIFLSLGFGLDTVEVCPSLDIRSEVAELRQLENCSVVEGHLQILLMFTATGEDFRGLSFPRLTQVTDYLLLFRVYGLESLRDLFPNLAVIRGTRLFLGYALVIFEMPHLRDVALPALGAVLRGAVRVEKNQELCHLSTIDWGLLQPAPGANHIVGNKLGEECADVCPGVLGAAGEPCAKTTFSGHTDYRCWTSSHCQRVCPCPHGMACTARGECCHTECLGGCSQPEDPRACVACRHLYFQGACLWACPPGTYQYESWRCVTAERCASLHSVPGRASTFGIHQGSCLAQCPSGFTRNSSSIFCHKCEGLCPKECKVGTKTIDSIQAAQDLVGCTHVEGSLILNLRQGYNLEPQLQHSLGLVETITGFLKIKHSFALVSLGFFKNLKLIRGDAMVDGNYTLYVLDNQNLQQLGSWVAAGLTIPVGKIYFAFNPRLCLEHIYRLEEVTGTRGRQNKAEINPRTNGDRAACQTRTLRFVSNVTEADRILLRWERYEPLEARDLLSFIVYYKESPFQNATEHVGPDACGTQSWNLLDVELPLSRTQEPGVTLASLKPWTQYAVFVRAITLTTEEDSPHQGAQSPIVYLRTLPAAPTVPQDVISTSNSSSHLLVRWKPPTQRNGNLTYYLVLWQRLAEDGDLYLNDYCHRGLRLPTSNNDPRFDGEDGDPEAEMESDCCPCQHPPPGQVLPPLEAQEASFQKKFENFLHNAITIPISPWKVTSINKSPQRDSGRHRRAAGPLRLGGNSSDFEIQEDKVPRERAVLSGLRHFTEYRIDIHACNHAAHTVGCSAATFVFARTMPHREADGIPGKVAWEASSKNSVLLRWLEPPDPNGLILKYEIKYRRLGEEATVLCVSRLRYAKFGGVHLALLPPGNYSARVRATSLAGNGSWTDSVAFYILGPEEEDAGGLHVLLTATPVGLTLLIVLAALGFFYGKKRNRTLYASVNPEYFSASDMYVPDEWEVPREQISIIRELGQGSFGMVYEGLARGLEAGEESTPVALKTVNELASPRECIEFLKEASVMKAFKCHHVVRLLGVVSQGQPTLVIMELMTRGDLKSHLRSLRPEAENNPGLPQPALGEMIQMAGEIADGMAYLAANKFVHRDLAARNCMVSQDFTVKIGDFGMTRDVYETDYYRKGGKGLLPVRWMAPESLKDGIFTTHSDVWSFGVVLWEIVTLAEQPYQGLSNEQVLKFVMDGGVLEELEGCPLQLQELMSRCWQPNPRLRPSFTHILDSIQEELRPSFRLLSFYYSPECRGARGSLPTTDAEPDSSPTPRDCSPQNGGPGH
# UniProt P28482, whole entry: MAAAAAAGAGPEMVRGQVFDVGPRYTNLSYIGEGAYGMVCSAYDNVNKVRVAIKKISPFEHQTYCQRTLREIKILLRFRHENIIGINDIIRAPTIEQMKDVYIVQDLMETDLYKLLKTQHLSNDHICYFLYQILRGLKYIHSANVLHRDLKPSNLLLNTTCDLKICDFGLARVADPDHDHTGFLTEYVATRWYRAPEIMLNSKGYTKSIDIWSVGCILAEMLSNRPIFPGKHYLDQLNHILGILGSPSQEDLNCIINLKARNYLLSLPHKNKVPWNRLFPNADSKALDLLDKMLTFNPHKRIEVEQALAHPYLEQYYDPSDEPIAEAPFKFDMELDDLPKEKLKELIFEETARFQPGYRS
# UniProt O75582, whole entry, looked up: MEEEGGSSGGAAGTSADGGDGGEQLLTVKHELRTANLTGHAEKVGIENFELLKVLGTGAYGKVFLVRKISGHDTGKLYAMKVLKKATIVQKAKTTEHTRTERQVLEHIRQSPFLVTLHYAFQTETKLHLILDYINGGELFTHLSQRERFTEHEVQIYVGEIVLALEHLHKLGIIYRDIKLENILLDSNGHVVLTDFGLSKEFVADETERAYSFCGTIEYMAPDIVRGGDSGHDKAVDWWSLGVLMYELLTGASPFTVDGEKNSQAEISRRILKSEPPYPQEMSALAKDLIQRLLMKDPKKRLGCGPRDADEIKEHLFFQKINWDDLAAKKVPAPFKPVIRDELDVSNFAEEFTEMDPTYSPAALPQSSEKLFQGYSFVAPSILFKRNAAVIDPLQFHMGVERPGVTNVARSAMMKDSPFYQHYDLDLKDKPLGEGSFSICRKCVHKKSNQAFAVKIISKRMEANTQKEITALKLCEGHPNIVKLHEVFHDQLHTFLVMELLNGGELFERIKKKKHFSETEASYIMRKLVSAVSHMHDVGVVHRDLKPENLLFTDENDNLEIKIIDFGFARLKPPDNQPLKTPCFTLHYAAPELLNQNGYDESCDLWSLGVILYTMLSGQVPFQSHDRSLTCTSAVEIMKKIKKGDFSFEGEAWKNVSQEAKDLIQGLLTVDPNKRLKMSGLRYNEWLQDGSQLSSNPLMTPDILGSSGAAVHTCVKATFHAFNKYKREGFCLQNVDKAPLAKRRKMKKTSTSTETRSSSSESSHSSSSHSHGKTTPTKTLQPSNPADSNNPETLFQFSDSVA
# UniProt Q9BXA7: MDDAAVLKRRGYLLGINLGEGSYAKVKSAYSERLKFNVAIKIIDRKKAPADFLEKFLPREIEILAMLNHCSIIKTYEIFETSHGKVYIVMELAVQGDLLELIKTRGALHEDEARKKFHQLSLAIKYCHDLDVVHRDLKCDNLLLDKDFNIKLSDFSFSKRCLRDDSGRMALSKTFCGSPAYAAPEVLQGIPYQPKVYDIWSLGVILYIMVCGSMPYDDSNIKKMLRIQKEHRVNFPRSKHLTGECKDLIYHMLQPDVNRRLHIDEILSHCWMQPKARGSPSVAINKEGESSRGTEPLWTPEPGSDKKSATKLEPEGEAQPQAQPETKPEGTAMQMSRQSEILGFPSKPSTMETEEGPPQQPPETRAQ
# UniProt Q8TDX7: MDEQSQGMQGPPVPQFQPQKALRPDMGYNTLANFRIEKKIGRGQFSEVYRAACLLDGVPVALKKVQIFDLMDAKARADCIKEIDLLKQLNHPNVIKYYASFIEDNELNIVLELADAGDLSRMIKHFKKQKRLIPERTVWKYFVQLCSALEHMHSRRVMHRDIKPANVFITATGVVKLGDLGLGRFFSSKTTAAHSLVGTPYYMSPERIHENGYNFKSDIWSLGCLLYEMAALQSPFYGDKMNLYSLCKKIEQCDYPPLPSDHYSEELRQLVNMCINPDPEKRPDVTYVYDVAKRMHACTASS
# UniProt P31749: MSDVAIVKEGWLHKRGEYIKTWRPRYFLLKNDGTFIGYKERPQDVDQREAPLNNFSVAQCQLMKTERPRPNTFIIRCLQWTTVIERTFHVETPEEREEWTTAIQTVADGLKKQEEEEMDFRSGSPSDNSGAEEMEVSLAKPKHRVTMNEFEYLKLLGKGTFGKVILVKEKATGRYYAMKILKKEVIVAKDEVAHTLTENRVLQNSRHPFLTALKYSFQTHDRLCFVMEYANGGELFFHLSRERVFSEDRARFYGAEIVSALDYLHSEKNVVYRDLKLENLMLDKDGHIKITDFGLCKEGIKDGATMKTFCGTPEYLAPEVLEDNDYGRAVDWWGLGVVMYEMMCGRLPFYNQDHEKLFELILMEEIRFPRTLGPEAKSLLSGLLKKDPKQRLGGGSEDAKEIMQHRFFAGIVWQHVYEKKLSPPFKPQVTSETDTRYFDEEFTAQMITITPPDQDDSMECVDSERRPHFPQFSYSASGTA
# UniProt Q9Y243: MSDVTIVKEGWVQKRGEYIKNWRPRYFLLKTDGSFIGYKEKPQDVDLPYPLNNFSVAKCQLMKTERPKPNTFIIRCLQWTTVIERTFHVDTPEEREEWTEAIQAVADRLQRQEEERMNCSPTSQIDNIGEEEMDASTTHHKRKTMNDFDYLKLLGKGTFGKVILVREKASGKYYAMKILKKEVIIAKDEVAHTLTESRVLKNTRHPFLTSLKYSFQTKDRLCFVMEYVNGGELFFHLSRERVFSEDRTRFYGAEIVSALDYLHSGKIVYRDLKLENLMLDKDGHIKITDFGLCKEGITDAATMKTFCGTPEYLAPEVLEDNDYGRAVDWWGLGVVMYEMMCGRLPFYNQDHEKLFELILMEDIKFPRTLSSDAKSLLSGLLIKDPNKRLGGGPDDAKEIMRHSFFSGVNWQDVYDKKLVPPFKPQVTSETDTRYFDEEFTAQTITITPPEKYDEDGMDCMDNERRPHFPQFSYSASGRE
# UniProt P05771, whole entry, looked up: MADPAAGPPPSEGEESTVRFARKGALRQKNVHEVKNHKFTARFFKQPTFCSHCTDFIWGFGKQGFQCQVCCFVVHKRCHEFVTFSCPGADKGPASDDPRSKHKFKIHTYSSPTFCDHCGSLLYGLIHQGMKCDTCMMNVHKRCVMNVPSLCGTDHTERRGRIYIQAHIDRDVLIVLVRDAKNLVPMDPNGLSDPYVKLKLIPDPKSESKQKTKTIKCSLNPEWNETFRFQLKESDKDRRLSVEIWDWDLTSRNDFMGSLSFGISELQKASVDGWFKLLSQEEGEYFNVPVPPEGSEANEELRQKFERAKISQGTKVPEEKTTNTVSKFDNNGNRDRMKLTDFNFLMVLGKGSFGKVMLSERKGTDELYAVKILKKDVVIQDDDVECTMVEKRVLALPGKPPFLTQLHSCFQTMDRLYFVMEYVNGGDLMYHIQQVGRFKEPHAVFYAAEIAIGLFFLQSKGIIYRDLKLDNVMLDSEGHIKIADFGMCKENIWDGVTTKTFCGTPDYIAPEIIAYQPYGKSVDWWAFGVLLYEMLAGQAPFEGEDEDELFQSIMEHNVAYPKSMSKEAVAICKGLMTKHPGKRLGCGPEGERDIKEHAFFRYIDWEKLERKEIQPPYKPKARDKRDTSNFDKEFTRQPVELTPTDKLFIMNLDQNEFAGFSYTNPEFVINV
# For some assays here: Most of the strong results are listed elsewhere, so they are rarer here than in the full data. The rule behind the calls is not given here. The list shows a part of the results, in another mix than the full data.
# What was measured:
# [1] = biological target: SRSF protein kinase 2 (Homo sapiens) (UniProt P78362); conditions: at 1 µM
# [2] = biological target: Serine/threonine-protein kinase PLK2 (Homo sapiens) (UniProt Q9NYY3); conditions: at 1 µM;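 note: residual PLK2 kinase activity expressed as percent of uninhibited control, measured in MOPS buffer at pH 7.0 with EDTA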
# [3] = biological target: Insulin-like growth factor 1 receptor (Homo sapiens) (UniProt P08069); conditions: at 1 µM
# [4] = biological target: Insulin receptor-related protein (Homo sapiens) (UniProt P14616); conditions: at 1 µM
# [5] = biological target: Tyrosine-protein kinase JAK2 (Homo sapiens) (UniProt O60674); conditions: at 1 µM
# [6] = biological target: Mitogen-activated protein kinase 9 (Homo sapiens) (UniProt P45984); conditions: at 1 µM
# [7] = biological target: Mitogen-activated protein kinase 9 (Homo sapiens) (UniProt P45984); conditions: at 10 µM
# [8] = biological target: T1, Serine/threonine-protein kinase STK11 (Homo sapiens) (UniProt Q15831); conditions: at 10 µM
# T1 sequence (whole entry): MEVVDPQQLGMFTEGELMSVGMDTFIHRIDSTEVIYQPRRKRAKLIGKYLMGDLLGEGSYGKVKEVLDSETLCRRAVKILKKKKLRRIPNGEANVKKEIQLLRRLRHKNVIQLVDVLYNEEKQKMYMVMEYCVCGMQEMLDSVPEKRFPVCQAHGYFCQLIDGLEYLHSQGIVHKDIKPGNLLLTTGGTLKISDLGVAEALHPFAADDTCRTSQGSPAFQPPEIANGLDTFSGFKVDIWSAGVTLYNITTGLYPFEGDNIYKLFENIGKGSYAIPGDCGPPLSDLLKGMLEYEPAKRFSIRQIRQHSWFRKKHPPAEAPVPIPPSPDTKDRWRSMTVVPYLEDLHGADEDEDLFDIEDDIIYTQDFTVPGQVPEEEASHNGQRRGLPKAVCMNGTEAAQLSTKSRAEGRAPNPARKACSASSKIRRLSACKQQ
# [9] = biological target: Mitogen-activated protein kinase 1 (Homo sapiens) (UniProt P28482); conditions: at 10 µM
# [10] = biological target: Serine/threonine-protein kinase MRCK alpha (Homo sapiens) (UniProt Q5VT25); conditions: at 1 µM
# [11] = biological target: Ribosomal protein S6 kinase alpha-5 (Homo sapiens) (UniProt O75582); conditions: at 1 µM
# [12] = biological target: SRSF protein kinase 3 (Homo sapiens) (UniProt Q9UPE1); conditions: at 1 µM;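 note: residual kinase activity expressed as percent of uninhibited control, measured in MOPS buffer at pH 7.0 containing EDTA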
# [13] = biological target: Testis-specific serine/threonine-protein kinase 1 (Homo sapiens) (UniProt Q9BXA7); conditions: at 1 µM
# [14] = biological target: Serine/threonine-protein kinase WNK3 (Homo sapiens) (UniProt Q9BYP7); conditions: at 1 µM;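 note: remaining kinase activity expressed versus control, assayed in 8 mM MOPS buffer pH 7.0 with 0.2 mM EDTA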
# [15] = biological target: Serine/threonine-protein kinase mTOR (Homo sapiens) (UniProt P42345); conditions: at 1 µM
# [16] = biological target: T2, Serine/threonine-protein kinase Nek6 (Homo sapiens) (UniProt Q9HC98); conditions: at 1 µM
# T2 sequence (whole entry): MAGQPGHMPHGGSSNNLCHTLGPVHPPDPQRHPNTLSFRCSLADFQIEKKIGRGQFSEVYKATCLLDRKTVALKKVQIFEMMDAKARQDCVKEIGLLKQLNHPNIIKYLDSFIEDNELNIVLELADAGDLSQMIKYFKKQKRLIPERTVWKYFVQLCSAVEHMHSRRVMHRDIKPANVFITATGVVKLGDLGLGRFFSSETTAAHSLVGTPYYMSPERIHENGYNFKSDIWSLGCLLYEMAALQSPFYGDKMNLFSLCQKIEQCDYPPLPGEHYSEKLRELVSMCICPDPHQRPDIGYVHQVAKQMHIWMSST
# [17] = biological target: Serine/threonine-protein kinase Nek7 (Homo sapiens) (UniProt Q8TDX7); conditions: at 1 µM
# [18] = biological target: Serine/threonine-protein kinase Nek7 (Homo sapiens) (UniProt Q8TDX7); conditions: at 10 µM
# [19] = biological target: PAS domain-containing serine/threonine-protein kinase (Homo sapiens) (UniProt Q96RG2); conditions: at 1 µM
# [20] = biological target: T3, Activin receptor type-1B (Homo sapiens) (UniProt P36896); conditions: at 10 µM
# T3 sequence (whole entry): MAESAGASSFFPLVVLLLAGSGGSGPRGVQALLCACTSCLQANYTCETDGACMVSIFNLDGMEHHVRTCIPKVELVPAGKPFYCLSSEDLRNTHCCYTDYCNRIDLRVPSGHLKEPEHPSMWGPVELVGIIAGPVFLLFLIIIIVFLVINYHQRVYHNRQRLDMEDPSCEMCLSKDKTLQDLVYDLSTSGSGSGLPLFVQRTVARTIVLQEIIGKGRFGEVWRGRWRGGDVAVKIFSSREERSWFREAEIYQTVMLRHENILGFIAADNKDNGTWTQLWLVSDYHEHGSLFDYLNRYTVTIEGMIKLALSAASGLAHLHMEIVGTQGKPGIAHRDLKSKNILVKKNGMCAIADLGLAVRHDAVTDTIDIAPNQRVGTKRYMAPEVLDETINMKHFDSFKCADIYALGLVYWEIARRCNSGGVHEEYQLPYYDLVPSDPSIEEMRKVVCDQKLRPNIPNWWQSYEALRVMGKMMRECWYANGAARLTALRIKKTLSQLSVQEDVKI
# [21] = biological target: Mitogen-activated protein kinase kinase kinase 5 (Homo sapiens) (UniProt Q99683); conditions: at 1 µM
# [22] = biological target: cAMP-dependent protein kinase catalytic subunit alpha (Homo sapiens) (UniProt P17612); conditions: at 10 µM
# [23] = biological target: RAC-alpha serine/threonine-protein kinase (Homo sapiens) (UniProt P31749); conditions: at 10 µM
# [24] = biological target: RAC-gamma serine/threonine-protein kinase (Homo sapiens) (UniProt Q9Y243); conditions: at 1 µM
# [25] = biological target: RAC-gamma serine/threonine-protein kinase (Homo sapiens) (UniProt Q9Y243); conditions: at 10 µM
# [26] = biological target: Protein kinase C beta type (Homo sapiens) (UniProt P05771); conditions: at 10 µM
# [27] = biological target: Protein kinase C beta type (Homo sapiens) (UniProt P05771); conditions: at 1 µM
# [28] = biological target: Protein kinase C beta type (Homo sapiens) (UniProt P05771); conditions: at 10 µM; remark: listed apart in the source
# [29] = biological target: T4, Protein kinase C epsilon type (Homo sapiens) (UniProt Q02156); conditions: at 1 µM
# T4 sequence (whole entry): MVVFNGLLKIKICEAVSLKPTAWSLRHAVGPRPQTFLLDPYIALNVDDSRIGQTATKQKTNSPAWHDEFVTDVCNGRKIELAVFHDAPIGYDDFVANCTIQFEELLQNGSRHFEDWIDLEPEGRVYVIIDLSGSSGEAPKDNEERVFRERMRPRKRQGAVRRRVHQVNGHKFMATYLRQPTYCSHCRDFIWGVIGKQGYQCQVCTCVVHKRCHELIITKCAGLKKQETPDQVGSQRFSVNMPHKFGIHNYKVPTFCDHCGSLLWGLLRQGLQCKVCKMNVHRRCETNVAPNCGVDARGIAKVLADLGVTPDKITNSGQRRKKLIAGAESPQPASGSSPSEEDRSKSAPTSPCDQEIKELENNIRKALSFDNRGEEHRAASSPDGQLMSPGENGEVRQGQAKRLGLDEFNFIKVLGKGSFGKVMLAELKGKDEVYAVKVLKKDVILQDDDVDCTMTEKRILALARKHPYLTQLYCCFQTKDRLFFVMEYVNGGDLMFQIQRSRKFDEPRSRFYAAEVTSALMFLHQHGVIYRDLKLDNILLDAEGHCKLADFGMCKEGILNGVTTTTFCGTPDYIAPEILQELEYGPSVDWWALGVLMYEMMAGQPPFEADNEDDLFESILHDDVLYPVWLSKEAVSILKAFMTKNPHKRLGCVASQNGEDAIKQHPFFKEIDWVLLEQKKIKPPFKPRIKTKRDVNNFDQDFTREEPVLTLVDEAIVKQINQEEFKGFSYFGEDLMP
smiles,measurement,setting,value
O=C(c1cc2cc(O)ccc2[nH]1)c1cc2cc(O)ccc2[nH]1,residual activity,[1],85%
same,residual activity,[2],87%
same,residual activity,[3],98%
same,residual activity,[4],101%
same,residual activity,[5],98%
same,residual activity,[6],99%
same,residual activity,[7],84%
same,residual activity,[8],88%
same,residual activity,[9],99%
same,residual activity,[10],85%
same,residual activity,[11],99%
same,residual activity,[12],92%
same,residual activity,[13],88%
same,residual activity,[14],inactive: 88%
same,residual activity,[15],97%
same,residual activity,[16],inactive: 92%
same,residual activity,[17],inactive: 95%
same,residual activity,[18],inactive: 99%
same,residual activity,[19],92%
same,residual activity,[20],87%
same,residual activity,[21],101%
same,residual activity,[22],86%
same,residual activity,[23],106%
same,residual activity,[24],93%
same,residual activity,[25],85%
same,residual activity,[26],91%
same,residual activity,[27],100%
same,residual activity,[28],93%
same,residual activity,[29],93%
